Values quoted from earlier work as cited in patent US20180272346A1, “MODULAR ORGAN MICROPHYSIOLOGICAL SYSTEM WITH MICROBIOME” (Massachusetts Institute of Technology, priority 2017, published 2018).

System: 7-way MPS platform (gut, liver and other MPSs)
Conditions: dose added to apical side of gut MPS; cited from earlier work

Substance: 4′-hydroxy-DCF [4-OH-DCF]
- absorption and distribution across MPS compartments: detected in all the others MPS compartments
